Measured values taken from patent US20060205037A1 (published 2006).

T1: rat GLP-1 receptor (CHO cells transfected with the rat GLP-1 receptor) (rat, UniProt P32301 22-463)
T1 sequence (looked up): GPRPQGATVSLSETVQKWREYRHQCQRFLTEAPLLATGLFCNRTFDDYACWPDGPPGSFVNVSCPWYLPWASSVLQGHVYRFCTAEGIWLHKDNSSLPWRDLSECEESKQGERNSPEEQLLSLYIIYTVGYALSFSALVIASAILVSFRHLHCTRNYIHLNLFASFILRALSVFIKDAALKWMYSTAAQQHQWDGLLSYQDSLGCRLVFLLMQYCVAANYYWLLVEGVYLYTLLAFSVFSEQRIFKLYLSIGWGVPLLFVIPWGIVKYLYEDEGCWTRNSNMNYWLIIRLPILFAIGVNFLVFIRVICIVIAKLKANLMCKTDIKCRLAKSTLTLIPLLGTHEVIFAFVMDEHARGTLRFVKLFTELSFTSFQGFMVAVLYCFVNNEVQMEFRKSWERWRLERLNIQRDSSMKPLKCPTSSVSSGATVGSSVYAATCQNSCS


Columns and labels:
[1] = target: GLP-1 receptor (CHO/GLP-1R cells, stably transfected CHO cells); experiment: cell-based or functional assay
[2] = target: T1, rat GLP-1 receptor (CHO cells …); experiment: cell-based or functional assay

Row | intracellular cAMP in CHO/GLP-1R cells, EC50 [1] | cAMP assay, Activity (nM) (EC50) [2] | Binder
1 | 2.28 nM | – | nL GLP-1 (7-37; A8G, K34A) (PEAPTD)2 mTf (other) HGEGTFTSDVSSYLEGQAAKEFIAWLVAGRGPEAPTDPEAPTDVPDKTVRWCAVSEHEATKCQSFRDHMKSVIPSDGPSVACVKKASYLDCIRAIAANEADAVTLDAGLVYDAYLAPNNLKPVVAEFYGSKEDPQTFYYAVAVVKKDSGFQMNQLRGKKSCHTGLGRSAGWNIPIGLLYCDLPEPRKPLEKAVANFFSGSCAPCADGTDFPQLCQLCPGCGCSTLNQYFGYSGAFKCLKDGAGDVAFVKHSTIFENLANKADRDQYELLCLDNTRKPVDEYKDCHLAQVPSHTVVARSMGGKEDLIWELLNQAQEHFGKDKSKEFQLFSSPHGKDLLFKDSAHGFLKVPPRMDAKMYLGYEYVTAIRNLREGTCPEAPTDECKPVKWCALSHHERLKCDEWSVNSVGKIECVSAETTEDCIAKIMNGEADAMSLDGGFVYIAGKCGLVPVLAENYNKADNCEDTPEAGYFAVAVVKKSASDLTWDNLKGKKSCHTAVGRTAGWNIPMGLLYNKINHCRFDEFFSEGCAPGSKKDSSLCKLCMGSGLNLCEPNNKEGYYGYTGAFRCLVEKGDVAFVKHQTVPQNTGGKNPDPWAKNLNEKDYELLCLDGTRKPVEEYANCHLARAPNHAVVTRKDKEACVHKILRQQQHLFGSNVADCSGNFCLFRSETKDLLFRDDTVCLAKLHDRNTYEKYLGEEYVKAVGNLRKCSTSSLLEACTFRRP
2 | – | 5.9 nM | ΔL GLP-1(7-36) GLP-2 linker-mTf (other) HAEGTFTSDVSSYLEGQAAKEFIAWLVKGRHADGSFSDEMNTILDNLAARDFINWLIQTKITDRVPDKTVRWCAVSEHEATKCQSFRDHMKSVIPSDGPSVACVKKASYLDCIRAIAANEADAVTLDAGLVYDAYLAPNNLKPVVAEFYGSKEDPQTFYYAVAVVKKDSGFQMNQLRGKKSCHTGLGRSAGWNIPIGLLYCDLPEPRKPLEKAVANFFSGSCAPCADGTDFPQLCQLCPGCGCSTLNQYFGYSGAFKCLKDGAGDVAFVKHSTIFENLANKADRDQYELLCLDNTRKPVDEYKDCHLAQVPSHTVVARSMGGKEDLIWELLNQAQEHFGKDKSKEFQLFSSPHGKDLLFKDSAHGFLKVPPRMDAKMYLGYEYVTAIRNLREGTCPEAPTDECKPVKWCALSHHERLKCDEWSVNSVGKIECVSAETTEDCIAKIMNGEADAMSLDGGFVYIAGKCGLVPVLAENYNKADNCEDTPEAGYFAVAVVKKSASDLTWDNLKGKKSCHTAVGRTAGWNIPMGLLYNKINHCRFDEFFSEGCAPGSKKDSSLCKLCMGSGLNLCEPNNKEGYYGYTGAFRCLVEKGDVAFVKHQTVPQNTGGKNPDPWAKNLNEKDYELLCLDGTRKPVEEYANCHLARAPNHAVVTRKDKEACVHKILRQQQHLFGSNVADCSGNFCLFRSETKDLLFRDDTVCLAKLHDRNTYEKYLGEEYVKAVGNLRKCSTSSLLEACTFRRP
3 | – | 2.27 nM | ΔL GLP-1(7-36) (SGGG)3 linker mTf (other) HAEGTFTSDVSSYLEGQAAKEFIAWLVKGRSGGGSGGGSGGGVPDKTVRWCAVSEHEATKCQSFRDHMKSVIPSDGPSVACVKKASYLDCIRAIAANEADAVTLDAGLVYDAYLAPNNLKPVVAEFYGSKEDPQTFYYAVAVVKKDSGFQMNQLRGKKSCHTGLGRSAGWNIPIGLLYCDLPEPRKPLEKAVANFFSGSCAPCADGTDFPQLCQLCPGCGCSTLNQYFGYSGAFKCLKDGAGDVAFVKHSTIFENLANKADRDQYELLCLDNTRKPVDEYKDCHLAQVPSHTVVARSMGGKEDLIWELLNQAQEHFGKDKSKEFQLFSSPHGKDLLFKDSAHGFLKVPPRMDAKMYLGYEYVTAIRNLREGTCPEAPTDECKPVKWCALSHHERLKCDEWSVNSVGKIECVSAETTEDCIAKIMNGEADAMSLDGGFVYIAGKCGLVPVLAENYNKADNCEDTPEAGYFAVAVVKKSASDLTWDNLKGKKSCHTAVGRTAGWNIPMGLLYNKINHCRFDEFFSEGCAPGSKKDSSLCKLCMGSGLNLCEPNNKEGYYGYTGAFRCLVEKGDVAFVKHQTVPQNTGGKNPDPWAKNLNEKDYELLCLDGTRKPVEEYANCHLARAPNHAVVTRKDKEACVHKILRQQQHLFGSNVADCSGNFCLFRSETKDLLFRDDTVCLAKLHDRNTYEKYLGEEYVKAVGNLRKCSTSSLLEACTFRRP
